Molecular target: p53/hDM2 interaction (Homo sapiens, UniProt Q00987)
Assay: fluorescence anisotropy competition assay p53/hDM2
Format: binding
Details: read-out: p53/hDM2 IC50
Source text: At first the lower inhibitory potency of both HIF-1α794–826 and hybrid 2 in comparison to helix mimetic 1 (9.2(±0.9) μM) which we determined previously,[33] might seem counterintuitive. One explanation that might account for this observation is that there may be a non-specific component to PPI inhibition associated with the aromatic oligoamide helix mimetic 1 (supported in part by a non-unity Hill co-efficient for the curve fitting, a property not observed for 2). […] We therefore performed further biophysical analysis. Although we illustrated previously that inhibition of HIF-1α/p300 by 1 was specific to the scaffold and selective in comparison to the eIF4E/4G interaction,[33] we expanded the range of assays here. […] Thus, by adding native amino acid residues from the HIF-1α sequence to the core helix mimetic 1 in hybrid 2, the specificity and selectivity of binding towards target interactions was improved.
Fig. 3 Biophysical screening of helix mimetic 1 and hybrid 2 to profile selectivity; FA competition data for inhibition of p53/hDM2.

Protein sequences, listed by entry. Tags and fused reporters are not part of them.
UniProt Q00987, whole entry, looked up: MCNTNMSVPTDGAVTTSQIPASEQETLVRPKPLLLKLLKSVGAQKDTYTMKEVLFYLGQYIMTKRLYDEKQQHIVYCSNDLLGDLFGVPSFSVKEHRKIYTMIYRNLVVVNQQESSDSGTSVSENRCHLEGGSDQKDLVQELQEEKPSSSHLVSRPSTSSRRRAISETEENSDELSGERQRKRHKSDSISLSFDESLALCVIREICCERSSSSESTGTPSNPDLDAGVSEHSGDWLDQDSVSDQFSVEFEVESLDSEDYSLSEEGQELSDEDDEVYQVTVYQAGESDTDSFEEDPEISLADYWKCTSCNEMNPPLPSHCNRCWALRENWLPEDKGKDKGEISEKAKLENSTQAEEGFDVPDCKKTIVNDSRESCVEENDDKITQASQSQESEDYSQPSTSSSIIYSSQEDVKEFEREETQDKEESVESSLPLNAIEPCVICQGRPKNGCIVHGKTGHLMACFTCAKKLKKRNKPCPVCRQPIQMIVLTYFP

IC50: 16.4 µM
Structure (SMILES): CC(C)COc1cc(C(=O)Nc2ccc(C(=O)Nc3ccc(C(=O)O)cc3OC(C)C)cc2OCC(C)C)ccc1N

From PMC4843846, “Towards “bionic” proteins: replacement of continuous sequences from HIF-1α with proteomimetics to create functional p300 binding HIF-1α mimics” (Chemical Communications (Cambridge, England), 2016)
